From patent US10961163B2, “Compositions and methods useful for enhancing the microbial conversion of nitrate into ammonium” (The Regents of the University of California, priority 2016, dated 2021)

Tested on: microbial enrichment cultures
Assay: Inhibitory potency (IC50) of inorganic compounds against growth and ammonium production, microbial enrichment with yeast extract
Format: cell-based
Conditions: microbial enrichment with complex carbon source (yeast extract), serial dilutions of inorganic compound; higher ratio favors ammonium production

With Sodium Fluorophosphate the “NH4^+ IC50/growth IC50 ratio” value was 1.0647.
